In patent US8263587B2, “Benzoxazepine compounds, their preparation and use” (Piramal Healthcare Limited, priority 2006, dated 2012):

Molecular target: T1, hPPARα (Homo sapiens, UniProt Q07869)
T1 construct: expressed in transfected cells; host or cells: CV-1 cells
T1 sequence (Q07869 1-468): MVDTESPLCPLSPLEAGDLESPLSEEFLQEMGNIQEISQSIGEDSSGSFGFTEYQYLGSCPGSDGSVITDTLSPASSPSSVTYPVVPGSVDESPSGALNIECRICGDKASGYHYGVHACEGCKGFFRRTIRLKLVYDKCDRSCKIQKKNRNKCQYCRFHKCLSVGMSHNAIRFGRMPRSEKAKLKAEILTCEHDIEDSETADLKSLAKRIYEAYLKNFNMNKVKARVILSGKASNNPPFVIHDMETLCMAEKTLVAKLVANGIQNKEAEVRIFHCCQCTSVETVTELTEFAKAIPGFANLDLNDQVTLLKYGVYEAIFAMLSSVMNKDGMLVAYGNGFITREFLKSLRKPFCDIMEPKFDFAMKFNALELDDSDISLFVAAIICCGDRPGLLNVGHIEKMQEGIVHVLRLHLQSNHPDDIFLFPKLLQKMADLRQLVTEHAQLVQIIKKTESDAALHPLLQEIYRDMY
Assay: hPPARα transactivation in cell-based assay (CV-1 cells, luciferase)
Details: CV-1 cells transfected with hPPARα
Procedure: Cell based transcription assay was employed to identify hPPAR γ/α agonists. CV-1 cells were maintained in MEM (minimum essential medium) containing 10% FBS (fetal bovine serum). Cells were seeded at a density of 80,000 cells/well in a 24-well plate one day prior to transfection. CV-1 cells were transiently transfected with hPPAR γ/α using Lipofectamine 2000. […] Receptor activation by ligands leads to activation of luciferase expression, which was measured after 15-16 h incubation. The cells were washed with PBS, lysed, and luciferase activity measured in a microplate luminometer. […] Both compounds were synthesized in-house. Maximum activation with the reference agonists was defined as 100%. Receptor activation by test compounds is presented as percentage of maximum activation caused by the respective reference agonists in Table 4(a), Table 4(b) and Table 4(c).

PPARα (Fold activation at 20 μM): 3.2 fold
SMILES: Cc1cccc(Nc2cc(Cl)nc(SCC(=O)O)n2)c1C [Wy-14,643, Wy-14643, reference compound]
